Values quoted from earlier work, collected in publication PMC4740375.

By UniProt entry, the sequences of proteins in these tests, tags left out. Residues count along the entry.
UniProt P16410, 36-161: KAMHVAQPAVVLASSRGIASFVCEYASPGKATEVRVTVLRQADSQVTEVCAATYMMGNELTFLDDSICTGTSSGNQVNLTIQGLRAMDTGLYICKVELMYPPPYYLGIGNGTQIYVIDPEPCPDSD
UniProt P42081, 24-247: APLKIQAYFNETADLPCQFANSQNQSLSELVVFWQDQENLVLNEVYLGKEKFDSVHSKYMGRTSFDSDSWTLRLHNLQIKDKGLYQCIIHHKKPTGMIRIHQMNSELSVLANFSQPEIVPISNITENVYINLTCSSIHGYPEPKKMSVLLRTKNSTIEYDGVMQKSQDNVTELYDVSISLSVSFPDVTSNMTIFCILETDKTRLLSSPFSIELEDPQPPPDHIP

Molecular target: CTLA-4 (Homo sapiens) (UniProt P16410)

Kd: 2000 nM
Substance: CD86 (from UniProt P42081)
